This experiment addresses T1, B2 receptor (Homo sapiens, UniProt P30411).
T1 construct: expressed in transfected cells; host or cells: B2-NFAT-CHO-K1 cell line (CHO-K1)
The experiment can be described thus: Activation of downstream signals of the B2 receptor by lysyl bradykinin Lys-BK (ERK1/2 and CREB phosphorylation, Western blot). In kind it is cell-based. The conditions noted are these: CHO-K1 cells (with B2 receptor); 1µM, 0.5h. How it is done:
CHO-K1 cells (with B2 receptor) in the logarithmic growth phase were collected, and viable cell counts were performed using a hemacyte counting plate. The live cell suspension was adjusted to 3 × 10^6cells/mL with medium and seeded in 6-well cell culture plates to a final cell concentration of 3 × 10^5 cells/ well. The cells were cultured in a CO2 incubator at 37.0°C and 5.0% CO2 for 24-48 hours. When the cell density was more than 90%, the cells were washed twice with PBS. The sample (Lys-BK) was prepared with F12 medium in advance, and 1ml of sample was added to each well with a final concentration of 1µM, while the control group was F12 medium. Then the cell culture plate was placed in an incubator at 37.0°C and 5.0% CO2 for 0.5h. Then, the 6-well plate was removed from the incubator and washed twice with PBS, and the PBS was aspirated after the last wash. The prepared protein lysate (RIPA, PMSF, phosphatase inhibitor) was added at 80µL/ well, and the bottom of the well was ground back and back with a scraper to accelerate cell lysis for 1min. The cell debris and the lysate was transferred to a centrifuge tube and centrifuged at 12000rpm for 10min at 4°C. […] The same amount of protein samples and pre-stained markers were loaded into 10% SDS-PAGE for gel running, membrane transfer, blocking, antibody incubation, and luminescence identification. […]
(Immunoblotting shows a protein as a band on a membrane.)

The chains behind the UniProt entries cited, without tags or fusion partners.
UniProt P30411, whole entry: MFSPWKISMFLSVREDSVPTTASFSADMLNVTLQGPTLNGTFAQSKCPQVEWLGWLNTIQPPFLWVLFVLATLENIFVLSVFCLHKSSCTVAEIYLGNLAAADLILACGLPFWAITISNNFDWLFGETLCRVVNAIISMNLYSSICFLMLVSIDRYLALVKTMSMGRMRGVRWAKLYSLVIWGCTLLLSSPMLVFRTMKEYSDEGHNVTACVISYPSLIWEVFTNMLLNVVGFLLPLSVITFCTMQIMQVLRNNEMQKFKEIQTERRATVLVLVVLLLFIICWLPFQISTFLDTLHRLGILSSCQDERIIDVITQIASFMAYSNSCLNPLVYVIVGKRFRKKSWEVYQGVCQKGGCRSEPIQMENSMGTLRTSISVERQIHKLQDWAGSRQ

With lysyl bradykinin [Lys-BK], the “phosphorylation of downstream CREB (qualitative)” value was “could activate the phosphorylation” and the “phosphorylation of downstream p-ERK1/2 (qualitative)” value is on record as “could activate the phosphorylation”.

These data come from patent EP4470554A1, “USE OF KALLIKREIN I OR DERIVATIVE THEREOF IN TREATMENT OF VCI, PSCI OR CSVD” (Zonhon Biopharma Institute, Inc., priority 2022, dated 2023).
